## Binding of CDR-mutated scFvs to a peptide of the spike HR2 region

From the AlphaSeq antibody data of Engelhart et al. 2022 (doi:10.1038/s41597-022-01779-4), copy in the FLAb collection.

All variants were tested on one target, the spike HR2 peptide PDVDLGDISGINAS (SARS-CoV-2).

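Phage display of a naive human antibody library on the peptide gave the parent. Variants in AAYL52 differ from the parent at up to three CDR positions; double and triple changes were sampled at random. AlphaSeq pools MATa yeast showing the antibodies with MATalpha yeast showing the peptide. Binding brings cells together so that they mate, and sequencing counts the barcode pairs among the diploids. Read counts were normalised to the haploid input and turned into Kd by a linear fit to BCL2-family pairs of known affinity, for each replicate. The assay was run in three technical replicates.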

The variants keep the heavy chain, the linker and the frameworks of Ab-95 (scFv order VH, a 15-residue (Gly4Ser)3 linker, VL).
VH: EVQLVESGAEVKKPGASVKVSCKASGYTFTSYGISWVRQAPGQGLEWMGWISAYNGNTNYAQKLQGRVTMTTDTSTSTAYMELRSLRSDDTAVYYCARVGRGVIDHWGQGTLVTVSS
VL: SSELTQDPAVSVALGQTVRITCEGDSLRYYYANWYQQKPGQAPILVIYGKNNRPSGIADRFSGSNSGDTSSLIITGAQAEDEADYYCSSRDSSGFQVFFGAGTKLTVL

The parent's light chain CDRs are EGDSLRYYYAN, GKNNRPS, SSRDSSGFQVF; each variant's own CDRs replace them letter for letter.
Each Kd is an estimate from the mating assay, the geometric mean of the replicates in which the pair was seen; lower is stronger.
An entry "nd" has no value in the source: the pair was not observed among the diploids in any replicate. This suggests poor binding but is not conclusive.
For reference, the parent read 200 nM as the reference entry and 180 nM as a member of this library.
As a blank, each scFv also met three strains without target: over library AAYL52, 28% of these pairings were detected, typically at 8.2 µM and seldom below 800 nM.

The variant EGDVLRYYYAN, GKNNRPD, SSRDPSGFQVF gave 930 nM (3 of 3 replicates).
The variant EGDSLRYYYAK, GKNNPPS, SSRDSSGFQVF gave 13 µM (1 of 3 replicates).
The variant EGDSLRYFYAN, GKNNRPT, SSRDGSGFQVF gave 4.8 µM (3 of 3 replicates).
The variant EGDSLRYLYAN, GKNNRPS, SSRCSMGFQVF gave 1.2 µM (1 of 3 replicates).
The variant EGDSLRYYYAN, GKINRPS, SSRDSSKFQVF gave nd (0 of 3 replicates).
The variant EHDSLRYYYCN, GKINRPS, SSRDSSGFQVF gave nd (0 of 3 replicates).
The variant ESDSLRYYYAN, GKNNRPS, SSRDCSGFQNF gave 4.4 µM (3 of 3 replicates).
The variant EGDYLRYYYAN, GKNNRPS, ISRDSSGFQVN gave 130 µM (1 of 3 replicates).
The variant EMCSLRYYYAN, GKNNRFS, SSRDSSGFQVF gave 17 µM (2 of 3 replicates).
The variant EADSLRYYYAN, GKNNRPS, SSRDSYGFQWF gave 5.4 µM (3 of 3 replicates).
The variant EGDSLRYYYAN, SKNNRPQ, SSRDSFGFQVF gave 5.0 µM (3 of 3 replicates).
The variant EGDSLTYNYAN, GKNNRIS, SSRDSSGFQVF gave 16 nM (3 of 3 replicates).
The variant EGDSLFYYYDN, GKNNRES, SSRDSSGFQVF gave 19 µM (2 of 3 replicates).
The variant EGDSLRYYYAN, GCNNRPS, SSRDSPGFQVF gave nd (0 of 3 replicates).
The variant EGDSLMYYYMK, GKNNRPS, SSRDSSGFQVF gave 13 µM (2 of 3 replicates).
The variant EGDPLRYYYAN, GGNNRPS, SSRDSSGFQVF gave 300 nM (3 of 3 replicates).
The variant EGDILRYYEAN, GKNNRPS, SSRDSSGDQVF gave 5.3 µM (2 of 3 replicates).
The variant EGDSLRYYYAN, GCNNRPS, SSRDSSGFIVM gave 12 µM (2 of 3 replicates).
The variant EGDSLRYYYAN, GPNNTPS, PSRDSSGFQVF gave 13 µM (3 of 3 replicates).
The variant EGDSLRYYYAM, WKNNRPS, SSRDSSVFQVF gave nd (0 of 3 replicates).
The variant EGDSLRYYYGN, GKNNRPN, SSRDSSGFQIF gave nd (0 of 3 replicates).

Further variants, results first:

27 µM (1 of 3 replicates) for EGDSLRYYYAN, AKNNRPR, CSRDSSGFQVF.
82 µM (2 of 3 replicates) for EGHSRRYYYAN, KKNNRPS, SSRDSSGFQVF.
5.4 µM (1 of 3 replicates) for EGDSLPYYYAN, GKRNRPC, SSRDSSGFQVF.
65 nM (3 of 3 replicates) for EGDSLRYHYAN, GKNNRPS, NSRDHSGFQVF.
64 nM (3 of 3 replicates) for EGDSLRYGYAN, GKNIVPS, SSRDSSGFQVF.
23 µM (1 of 3 replicates) for EGDSLRYYYAT, GKNNCPS, SSRDSSGFRVF.
85 nM (3 of 3 replicates) for EGDSLRYAYAN, GKNNRPS, SSRRGSGFQVF.
1.5 µM (3 of 3 replicates) for EGISLRYYYAN, GKNNRGS, SSRDYSGFQVF.
32 µM (2 of 3 replicates) for ETDSWRYYYAN, GKNNRPS, SSRDSSGFQFF.
310 nM (3 of 3 replicates) for EGDSTRYSYAN, GKNNRPS, SSRDSSGFQKF.
68 µM (1 of 3 replicates) for EGDSLGYYYAN, GKLNRPS, SSRDSSGFQVP.
13 µM (3 of 3 replicates) for EILSLRYKYAN, GKNNRPS, SSRDSSGFQVF.
4.4 µM (1 of 3 replicates) for EGLSLRYYYAN, GKNNRKS, SSRDSSSFQVF.
nd (0 of 3 replicates) for EGDSLRYYYAN, GKPNRPF, SSRDSMGFQVF.
540 nM (3 of 3 replicates) for DGDSLRYYYPN, GKNNRPS, SSRDSSGFQVA.
18 µM (3 of 3 replicates) for ELRSLRYYYAN, GKNNRPS, SSRDSSGFQVG.
610 nM (3 of 3 replicates) for EGDSLSYYYAN, GKNNRPS, SSRDSQGFQVF.
3.0 µM (3 of 3 replicates) for EGDYLRYYYAN, GKNNRPT, SSRDSSGFQVF.
420 nM (3 of 3 replicates) for EGDSLRAYYAN, GKNNRVS, SSHDSSGFQVF.
1.9 µM (3 of 3 replicates) for LGDSLRYWYAN, GKNNRSS, SSRDSSGFQVF.
4.7 µM (1 of 3 replicates) for EGDSHRYYYAQ, GNNNRPS, SSRDSSGFQVF.
850 nM (3 of 3 replicates) for EADSLRYEYAN, GKNNAPS, SSRDSSGFQVF.

The 4 strongest on average among those seen in every replicate, once more:

For EGDSLTYNYAN, GKNNRIS, SSRDSSGFQVF, the assay gave 16 nM (3 of 3 replicates).
For EGDSLRYGYAN, GKNIVPS, SSRDSSGFQVF, the assay gave 64 nM (3 of 3 replicates).
For EGDSLRYHYAN, GKNNRPS, NSRDHSGFQVF, the assay gave 65 nM (3 of 3 replicates).
For EGDSLRYAYAN, GKNNRPS, SSRRGSGFQVF, the assay gave 85 nM (3 of 3 replicates).